{"source": "patent US12617776B2", "about": "“Stable salt and crystal forms of 2-[3-({1-[2-(dimethylamino)ethyl]-2-(2,2-dimethylpropyl)-1H-1,3-benzodiazol-5-yl}sulfonyl)azetidin-1-yl]ethan-1-ol” (priority 2020, dated 2026)", "key": {"[1]": {"details": "Aw greater than or equal to 0.6"}, "[2]": {"details": "for form after humidity stress (XRPD): 7 days"}, "[3]": {"assay": "Vapor stress of crystalline and amorphous AAT-730 HCl salt (Methods 5-7, 5-8)", "type": "physicochemical"}, "[4]": {"assay": "Humidity stress of possible salts at 40° C./75% RH (Method 3-8)", "type": "physicochemical", "details": "1 week"}}, "note": "Counter-ions that a name gives are not always drawn. Like-named read-outs stand apart in the source and are kept apart here.", "data": [{"smiles": "CN(C)CCn1c(CC(C)(C)C)nc2cc(S(=O)(=O)C3CN(CCO)C3)ccc21", "note": "[AAT-730 HCl salt Pattern 1]", "values": [{"measurement": "stability in water activity experiments", "setting": "[1]", "result": "more stable form"}, {"measurement": "form after humidity stress (XRPD)", "setting": "[2]; 98% RH", "result": "remained as Pattern 1"}, {"measurement": "XRPD", "setting": "[2]; HCl salt input Pattern 1, 23% RH stress, sample TW-0012E-013-01", "result": "Pattern 2"}, {"measurement": "XRPD", "setting": "[2]; HCl salt input Pattern 1, 75% RH stress, sample TW-0012E-013-02", "result": "Pattern 2"}, {"measurement": "XRPD", "setting": "[2]; HCl salt input Pattern 1, 98% RH stress, sample TW-0012E-013-03", "result": "Pattern 1"}, {"measurement": "form after humidity stress (XRPD)", "setting": "[2]; less than or equal to 75% RH", "result": "converted to Pattern 2"}, {"measurement": "XRPD", "setting": "HCl salt input Pattern 1, freeze drying, water, sample TW-0012E-011-01", "result": "Pattern 4"}, {"measurement": "XRPD", "setting": "HCl salt input Pattern 1, planetary milling, Cyclohexane, sample TW0012E-017-04", "result": "Disordered Pattern 1"}, {"measurement": "XRPD", "setting": "HCl salt input Pattern 1, planetary milling, DCM, sample TW0012E-017-05", "result": "Pattern 1"}, {"measurement": "XRPD", "setting": "HCl salt input Pattern 1, planetary milling, DIPE, sample TW0012E-017-07", "result": "Disordered Pattern 1"}, {"measurement": "XRPD", "setting": "HCl salt input Pattern 1, planetary milling, EtOAc, sample TW0012E-017-09", "result": "Pattern 1"}, {"measurement": "XRPD", "setting": "HCl salt input Pattern 1, planetary milling, EtOH, sample TW0012E-017-08", "result": "Pattern 1"}, {"measurement": "XRPD", "setting": "HCl salt input Pattern 1, planetary milling, IPA, sample TW0012E-017-13", "result": "Pattern 1"}, {"measurement": "XRPD", "setting": "HCl salt input Pattern 1, planetary milling, MIBK, sample TW0012E-017-12", "result": "Pattern 1"}, {"measurement": "XRPD", "setting": "HCl salt input Pattern 1, planetary milling, acetone, sample TW0012E-017-01", "result": "Disordered Pattern 1"}, {"measurement": "XRPD", "setting": "HCl salt input Pattern 1, planetary milling, dioxane, sample TW0012E-017-06", "result": "Pattern 1"}, {"measurement": "XRPD", "setting": "HCl salt input Pattern 1, planetary milling, heptane, sample TW0012E-017-10", "result": "Pattern 1"}, {"measurement": "XRPD", "setting": "HCl salt input Pattern 1, planetary milling, i-PrOAc, sample TW0012E-017-14", "result": "Pattern 1"}, {"measurement": "XRPD", "setting": "HCl salt input Pattern 1, planetary milling, no solvent, sample TW0012E-017-16", "result": "Disordered Pattern 1"}, {"measurement": "XRPD", "setting": "HCl salt input Pattern 1, planetary milling, toluene, sample TW0012E-017-15", "result": "Pattern 1"}, {"measurement": "XRPD", "setting": "HCl salt, crash precipitation, water, anti-solvent IPA, sample TW-0012E-009-05", "result": "Pattern 3"}, {"measurement": "XRPD", "setting": "HCl salt, crash precipitation, water, anti-solvent MeOH, sample TW-0012E-009-04", "result": "Pattern 4"}, {"measurement": "XRPD", "setting": "HCl salt, slow cooling, MeOH, sample TW-0012E-016-01", "result": "Pattern 1"}, {"measurement": "XRPD", "setting": "HCl salt, slow cooling, THF/water (13/1, Aw at most 0.9), sample TW-0012E-016-03", "result": "Pattern 1"}, {"measurement": "XRPD", "setting": "HCl salt, slow evaporation, EtOH/water (50/50), sample TW-0012E-008-03", "result": "Pattern 4"}, {"measurement": "XRPD", "setting": "HCl salt, slurry, ACN, 5° C., 5 days, sample TW-0012E-004-02", "result": "Pattern 1"}, {"measurement": "XRPD", "setting": "HCl salt, slurry, ACN, 20° C., 5 days, sample TW-0012E-005-02", "result": "Pattern 2"}, {"measurement": "XRPD", "setting": "HCl salt, slurry, ACN, 50° C., 7 days, sample TW-0012E-006-02", "result": "Pattern 2"}, {"measurement": "XRPD", "setting": "HCl salt, slurry, DCM, 5° C., 5 days, sample TW-0012E-004-03", "result": "Pattern 1"}, {"measurement": "XRPD", "setting": "HCl salt, slurry, DCM, 20° C., 5 days, sample TW-0012E-005-03", "result": "Pattern 2"}, {"measurement": "XRPD", "setting": "HCl salt, slurry, DCM, 40° C., 5 days, sample TW-0012E-003-03", "result": "Pattern 1"}, {"measurement": "XRPD", "setting": "HCl salt, slurry, DMSO/water (80/20, Aw at most 0.27), 5° C., 5 days, sample TW-0012E-004-06", "result": "Pattern 1"}, {"measurement": "XRPD", "setting": "HCl salt, slurry, DMSO/water (80/20, Aw at most 0.27), 20° C., 5 days, sample TW-0012E-005-06", "result": "Pattern 1"}, {"measurement": "XRPD", "setting": "HCl salt, slurry, EtOH, 5° C., 5 days, sample TW-0012E-004-04", "result": "Pattern 1"}, {"measurement": "XRPD", "setting": "HCl salt, slurry, EtOH, 20° C., 5 days, sample TW-0012E-005-04", "result": "Pattern 2"}, {"measurement": "XRPD", "setting": "HCl salt, slurry, EtOH, 50° C., 7 days, sample TW-0012E-006-04", "result": "Pattern 2"}, {"measurement": "XRPD", "setting": "HCl salt, slurry, THF, 5° C., 5 days, sample TW-0012E-004-05", "result": "Pattern 2"}, {"measurement": "XRPD", "setting": "HCl salt, slurry, THF, 20° C., 5 days, sample TW-0012E-005-05", "result": "Pattern 2"}, {"measurement": "XRPD", "setting": "HCl salt, slurry, THF, 50° C., 7 days, sample TW-0012E-006-05", "result": "Pattern 2"}, {"measurement": "XRPD", "setting": "HCl salt, slurry, THF/water (13/1, Aw at most 0.9), 5° C., 5 days, sample TW-0012E-004-08", "result": "Pattern 1"}, {"measurement": "XRPD", "setting": "HCl salt, slurry, THF/water (13/1, Aw at most 0.9), 20° C., 5 days, sample TW-0012E-005-08", "result": "Pattern 1"}, {"measurement": "XRPD", "setting": "HCl salt, slurry, acetone, 5° C., 5 days, sample TW-0012E-004-01", "result": "Pattern 1"}, {"measurement": "XRPD", "setting": "HCl salt, slurry, acetone, 20° C., 5 days, sample TW-0012E-005-01", "result": "Pattern 2"}, {"measurement": "XRPD", "setting": "HCl salt, slurry, acetone, 50° C., 7 days, sample TW-0012E-006-01", "result": "Pattern 2"}, {"measurement": "XRPD", "setting": "HCl salt, slurry, acetone/water (20/1, Aw at most 0.6), 5° C., 5 days, sample TW-0012E-004-07", "result": "Pattern 2"}, {"measurement": "XRPD", "setting": "HCl salt, slurry, acetone/water (20/1, Aw at most 0.6), 20° C., 5 days, sample TW-0012E-005-07", "result": "Pattern 2"}, {"measurement": "XRPD", "setting": "HCl salt, sonication of paste, ACN, sample TW-0012E-010-02", "result": "Pattern 2"}, {"measurement": "XRPD", "setting": "HCl salt, sonication of paste, DCM, sample TW-0012E-010-03", "result": "Pattern 2"}, {"measurement": "XRPD", "setting": "HCl salt, sonication of paste, EtOH, sample TW-0012E-010-04", "result": "Pattern 2"}, {"measurement": "XRPD", "setting": "HCl salt, sonication of paste, MeOH, sample TW-0012E-010-08", "result": "Pattern 1"}, {"measurement": "XRPD", "setting": "HCl salt, sonication of paste, THF, sample TW-0012E-010-05", "result": "Pattern 2"}, {"measurement": "XRPD", "setting": "HCl salt, sonication of paste, acetone, sample TW-0012E-010-01", "result": "Pattern 2"}, {"measurement": "XRPD", "setting": "HCl salt, sonication of paste, acetone/water (20/1, Aw at most 0.6), sample TW-0012E-010-07", "result": "Pattern 1"}, {"measurement": "XRPD", "setting": "HCl salt, temperature cycling, 1-Butanol, sample TW-0012E-015-01", "result": "Pattern 2"}, {"measurement": "XRPD", "setting": "HCl salt, temperature cycling, ACN, sample TW-0012E-003-02", "result": "Pattern 1"}, {"measurement": "XRPD", "setting": "HCl salt, temperature cycling, DIPE, sample TW-0012E-015-03", "result": "Pattern 2"}, {"measurement": "XRPD", "setting": "HCl salt, temperature cycling, Dioxane, sample TW-0012E-015-09", "result": "Pattern 2"}, {"measurement": "XRPD", "setting": "HCl salt, temperature cycling, EtOH, sample TW-0012E-003-04", "result": "Pattern 1"}, {"measurement": "XRPD", "setting": "HCl salt, temperature cycling, EtOH/water (50/50), sample TW-0012E-003-08", "result": "Pattern 1"}, {"measurement": "XRPD", "setting": "HCl salt, temperature cycling, IPA, sample TW-0012E-015-08", "result": "Pattern 2"}, {"measurement": "XRPD", "setting": "HCl salt, temperature cycling, MEK, sample TW-0012E-015-05", "result": "Pattern 2"}, {"measurement": "XRPD", "setting": "HCl salt, temperature cycling, MIBK, sample TW-0012E-015-06", "result": "Pattern 2"}, {"measurement": "XRPD", "setting": "HCl salt, temperature cycling, THF, sample TW-0012E-003-05", "result": "Pattern 1"}, {"measurement": "XRPD", "setting": "HCl salt, temperature cycling, THF/water (13/1, Aw at most 0.9), sample TW-0012E-003-07", "result": "Pattern 1"}, {"measurement": "XRPD", "setting": "HCl salt, temperature cycling, acetone, sample TW-0012E-003-01", "result": "Pattern 1"}, {"measurement": "XRPD", "setting": "HCl salt, temperature cycling, acetone/water (20/1, Aw at most 0.6), sample TW-0012E-003-06", "result": "Pattern 1"}, {"measurement": "XRPD", "setting": "HCl salt, temperature cycling, cyclohexane, sample TW-0012E-015-02", "result": "Pattern 2"}, {"measurement": "XRPD", "setting": "HCl salt, temperature cycling, heptane, sample TW-0012E-015-12", "result": "Pattern 2"}, {"measurement": "XRPD", "setting": "HCl salt, temperature cycling, i-PrOAc, sample TW-0012E-015-10", "result": "Pattern 2"}, {"measurement": "XRPD", "setting": "HCl salt, temperature cycling, toluene, sample TW-0012E-015-11", "result": "Pattern 2"}, {"measurement": "XRPD", "setting": "[3]", "result": "Pattern 2"}, {"measurement": "form after solvent vapor stress (XRPD)", "setting": "[3]", "result": "converted to Pattern 2"}, {"measurement": "stability to 40° C./75% RH stressing (deliquescence checked visually)", "setting": "[4]; listed as AAT-730 HCl salt Pattern A", "result": "stable"}, {"measurement": "stability to 40° C./75% RH stressing (deliquescence checked visually)", "setting": "[4]; listed as HCl salt Pattern A", "result": "crystalline 1:1 salt, physically stable to 40° C./"}]}]}
